Experimental data published in patent US20200362303A1, “MAINTENANCE-AND-AMPLIFICATION METHOD AND DIFFERENTIATION INDUCTION METHOD FOR PRIMORDIAL GERM CELLS/PRIMORDIAL GERM CELL-LIKE CELLS” (KYOTO UNIVERSITY, priority 2017, published 2020).

How the values were obtained:
Type in all cases: cell-based, mouse
[1] = tested on: PGCLC induced from BVSCDT ESC(XY); experiment: Screening for factors inducing female germ cell fate: DT and BV expression by FACS at c7; conditions: added from c3, read at c7; RA 100 nM, cytokines 500 ng/ml; BMPs in combination with RA
Experimental: (§1) The PGC/PGCLC expansion medium was constituted of 10% KSR, 2.5% FBS, 0.1 mM NEAA, 1 mM sodium pyruvate, 2 mM L-glutamine, 0.1 mM 2-mercaptoethanol, 100 U/ml penicillin, 0.1 mg/ml […] streptomycin, […] forskolin, and 10 μM rolipram. The entire medium was changed every 2 days from c3. Cytokines/compounds for induction of female fate were provided from c3 to the end of culture. RA and BMP concentrations used were 100 nM and 300 ng/ml, respectively, unless otherwise specified. Brightfield and fluorescence images were captured using an IX73 inverted microscope (Olympus).
The preparation of d4/c0 PGCLC for FACS is described in “ESC culture/induction and PGCLC induction/culture”. To isolate germ cells in vivo, fetal gonads of BVSC, VR or SG mice were cut and processed for FACS according to the procedure described for d4/c0 PGCLC. Culture PGCLC was also prepared by the same method except that, after dissociation, the cells were washed with 0.1% BSA-DMEM containing 100 μg/ml DNase (Sigma-Aldrich), lysed DNA from dead cells was digested to prevent the formation of cell/debris clumps. Fluorescent activity of BV/SG, SC, or DT/VR was detected with FITC, Horizon V500 or PE-Texas Red channels, respectively. FACS data was analyzed using FlowJo or FACS Diva software package. […]

PGC at E11.5 = experiment: Ex vivo culture of E11.5 PGC, SCP3/DDX4/SG expression at c4; conditions: cultured 4 days; RA 100 nM, BMP2 300 ng/ml
Description: For PGC culture, fetal gonads of SG mice at E11.5 (without gender discrimination) were cut and dissociated. SG (+) PGCs were selected by FACS, plated on m220 feeder cells, and cultured in PGC/PGCLC expansion medium. Reagents for induction of female fate were provided from c0. For fetal gonadal culture, the ovary of the embryonic stage, including the E11.5 [identified by PCR (Primers)] mesonephros, was removed and cultured under conditions of the gas-liquid interface on the culture medium insert (353095; BD Falcon). The medium used was DMEM containing 10% FBS, 100 U/ml penicillin, 0.1 mg/ml streptomycin and 2 mM L-glutamine. Small molecule inhibitors were provided with medium from c0.
Immunofluorescence (IF) analysis was performed as described previously (Hayashi et al, 2012). The following primary antibodies were used: chicken anti-GFP (ab13970; Abeam), rabbit anti-DDX4 (ab13840; Abeam), mouse anti-DDX4 (ab27591; Abeam), rabbit anti-DAZL (ab34129; Abeam), goat anti-DAZL (sc-27333; Santa Cruz), rabbit anti-STRA8 (ab49602; Abeam), mouse anti-SYCP3 (ab97672; Abeam) and rabbit anti-TEX14 (ab41733; Abeam)IgG. […]

cultured PGCLC = experiment: Immunofluorescence analysis of STRA8, SCP3, DDX4 in cultured PGCLC; conditions: c9, BMP4, 5, 7 combined with RA, BMS493 with BMP2, LDN193189 with RA and BMP2
Experimental: as §1
Immunofluorescence (IF) analysis was performed as described previously (Hayashi et al, 2012). The following primary antibodies were used: chicken anti-GFP (ab13970; Abeam), rabbit anti-DDX4 (ab13840; Abeam), mouse anti-DDX4 (ab27591; Abeam), rabbit anti-DAZL (ab34129; Abeam), goat anti-DAZL (sc-27333; Santa Cruz), rabbit anti-STRA8 (ab49602; Abeam), mouse anti-SYCP3 (ab97672; Abeam) and rabbit anti-TEX14 (ab41733; Abeam)IgG. The following secondary antibodies were used: Alexa Fluor 488-goat anti-mouse or chicken IgG; Alexa Fluor 568-goat anti-rabbit IgG and Alexa Fluor 633-goat anti-mouse, anti-chicken IgG; Alexa Fluor 488-donkey anti-mouse IgG; Alexa Fluor 568-donkey anti-rabbit IgG and Alexa Fluor 633-donkey anti-goat IgG. IF images were acquired using a confocal microscope [FV1000 (Olympus) or LSM780 (Zeiss)].

**Q.** Which “DT and BV expression in BV (+) cells” value [1] does the source give for “BMP2: bone morphogenetic protein 2 cytokine (R&D Systems)” here?
**A.** strongly activated DT and simultaneously down-regulated BV

**Q.** And the “SCP3-positive (+)/DDX4-strongly positive (+)/SG-negative (−) cells” value (PGC at E11.5)?
**A.** ~22.9%

**Q.** And the “induction of VR/DDX4 and SCP3 (+) cells (meiotic entry)” value (cultured PGCLC)?
**A.** induced VR and SCP3 (+) mitotic cells
